Laboratory results as given in ChEMBL document CHEMBL3621128, “Synthesis and biological evaluation of 2-alkyl-2-methoxymethyl-salvinorin ethers as selective κ-opioid receptor agonists” (2015).

Chains of the proteins cited; added tags and fusions are not shown.
UniProt P32300, whole entry, looked up: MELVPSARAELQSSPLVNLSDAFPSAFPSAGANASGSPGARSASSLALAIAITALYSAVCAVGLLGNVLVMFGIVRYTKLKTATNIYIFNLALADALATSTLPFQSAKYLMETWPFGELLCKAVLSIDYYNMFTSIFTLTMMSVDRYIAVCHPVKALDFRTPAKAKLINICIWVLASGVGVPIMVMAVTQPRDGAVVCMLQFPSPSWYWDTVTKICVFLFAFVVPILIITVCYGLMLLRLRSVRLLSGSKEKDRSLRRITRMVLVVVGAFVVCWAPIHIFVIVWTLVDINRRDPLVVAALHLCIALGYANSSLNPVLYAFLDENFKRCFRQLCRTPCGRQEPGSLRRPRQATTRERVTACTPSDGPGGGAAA
UniProt P33535, whole entry, looked up: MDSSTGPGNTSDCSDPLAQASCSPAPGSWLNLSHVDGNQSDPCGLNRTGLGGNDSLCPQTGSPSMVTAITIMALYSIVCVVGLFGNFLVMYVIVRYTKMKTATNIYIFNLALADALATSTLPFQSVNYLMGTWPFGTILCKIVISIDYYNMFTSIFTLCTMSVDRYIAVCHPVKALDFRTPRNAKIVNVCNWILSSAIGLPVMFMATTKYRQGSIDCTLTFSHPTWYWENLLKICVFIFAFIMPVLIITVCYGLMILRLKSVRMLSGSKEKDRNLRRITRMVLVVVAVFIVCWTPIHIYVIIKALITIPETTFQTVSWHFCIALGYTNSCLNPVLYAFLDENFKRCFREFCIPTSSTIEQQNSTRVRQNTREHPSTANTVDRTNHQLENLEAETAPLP

Tests used:
[1] = target: Delta-type opioid receptor (Mus musculus, UniProt P32300); assay: Displacement of [3H]diprenorphine from FLAG-tagged mouse delta opioid receptor expressed in CHO cell membranes
Mu-type opioid receptor = Mu-type opioid receptor (Rattus norvegicus, UniProt P33535); assay: Displacement of [3H]diprenorphine from rat mu opioid receptor expressed in CHO cell membranes

COC(=O)[C@@H]1C[C@H](O)C(=O)[C@H]2[C@@]1(C)CC[C@H]1C(=O)O[C@H](c3ccoc3)C[C@]21C
Ki [1]: > 1000 nM
Ki (Mu-type opioid receptor): > 1000 nM
